This passage reports Ki and IC50 results from ChEMBL document CHEMBL1154754, “Janus kinase 2 inhibitors. Synthesis and characterization of a novel polycyclic azaindole” (J Med Chem, 2009).

By UniProt entry, the sequences of proteins in these tests, tags left out. Where a name states a change or a piece, a line headed by the entry shows the natural chain unless it says otherwise.
UniProt O60674: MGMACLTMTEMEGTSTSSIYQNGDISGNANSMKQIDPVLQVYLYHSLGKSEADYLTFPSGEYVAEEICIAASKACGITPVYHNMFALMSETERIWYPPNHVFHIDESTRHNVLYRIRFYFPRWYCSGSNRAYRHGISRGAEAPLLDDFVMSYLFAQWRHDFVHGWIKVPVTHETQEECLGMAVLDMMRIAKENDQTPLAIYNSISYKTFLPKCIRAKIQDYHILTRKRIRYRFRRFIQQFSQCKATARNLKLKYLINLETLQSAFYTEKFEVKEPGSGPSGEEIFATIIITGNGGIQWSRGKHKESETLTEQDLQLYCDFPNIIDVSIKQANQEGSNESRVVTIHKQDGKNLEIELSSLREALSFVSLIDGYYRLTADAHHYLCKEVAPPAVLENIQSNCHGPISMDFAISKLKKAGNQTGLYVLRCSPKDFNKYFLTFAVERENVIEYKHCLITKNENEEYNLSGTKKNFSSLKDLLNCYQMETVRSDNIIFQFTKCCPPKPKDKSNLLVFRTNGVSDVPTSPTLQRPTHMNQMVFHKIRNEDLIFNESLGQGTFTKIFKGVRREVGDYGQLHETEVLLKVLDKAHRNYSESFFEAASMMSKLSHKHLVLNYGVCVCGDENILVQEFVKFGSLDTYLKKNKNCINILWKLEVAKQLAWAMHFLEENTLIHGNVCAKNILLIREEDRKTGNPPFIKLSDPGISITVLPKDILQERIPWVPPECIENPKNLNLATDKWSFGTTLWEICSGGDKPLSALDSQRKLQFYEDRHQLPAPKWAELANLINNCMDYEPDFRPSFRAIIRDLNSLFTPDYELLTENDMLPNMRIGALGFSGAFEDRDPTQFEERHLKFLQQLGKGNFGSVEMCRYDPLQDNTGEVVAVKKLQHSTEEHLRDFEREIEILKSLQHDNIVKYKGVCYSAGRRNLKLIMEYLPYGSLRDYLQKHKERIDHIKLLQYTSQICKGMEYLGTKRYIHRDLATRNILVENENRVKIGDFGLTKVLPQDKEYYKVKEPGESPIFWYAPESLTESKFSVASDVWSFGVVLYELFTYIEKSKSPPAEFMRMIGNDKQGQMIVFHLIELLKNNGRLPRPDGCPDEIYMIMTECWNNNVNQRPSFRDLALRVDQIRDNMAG

For experiment [1], the target named is T1, Tyrosine-protein kinase JAK2 (Homo sapiens, UniProt O60674). In words: Inhibition of recombinant JAK2.
Experiment [2] deals with T1, Tyrosine-protein kinase JAK2. Nature of the experiment: Inhibition of JAK2 in human TF1 cells assessed as inhibition of GMCSF-induced STAT5 phosphorylation by flow cytometry. The format is cell-based, TF-1. A general note: Flow cytometry measures light scatter and fluorescence of single cells or particles in a stream.

As a reminder, the Ki is the equilibrium dissociation constant of an inhibitor or competing ligand from its target. For `O=C1Nc2ccccc2-c2ccnc3[nH]cc(c23)C1c1ccc(O)cc1` (single isomer, unassigned; atropisomer 2), in experiment [1], the Ki amounted to 1 nM.
As a reminder, the IC50 is the concentration that inhibits the measured activity by half. In the case of `O=C1Nc2ccccc2-c2ccnc3[nH]cc(c23)C1c1ccc(O)cc1` (single isomer, unassigned; atropisomer 1), in experiment [2], the IC50 came to 270 nM. For the same molecule, the Ki in experiment [1] was found to be 1 nM.
